Legend:
[1] = target: T1, L-lactate dehydrogenase A chain (Homo sapiens, UniProt P00338)
[2] = target: T1, L-lactate dehydrogenase A chain; remark: listed apart in the source
L-lactate dehydrogenase [3] = target: T2, L-lactate dehydrogenase (Homo sapiens, UniProt V9HWB9); test: Inhibition of LDH in human MIAPaCa2 cells assessed as reduction in lactate production preincubated for 2 hrs measured after 30 mins by high throughput fluorescence assay; format: cell-based
L-lactate dehydrogenase [4] = target: T2, L-lactate dehydrogenase; test: Inhibition of LDH in human A673 cells assessed as reduction in lactate production preincubated for 2 hrs measured after 30 mins by high throughput fluorescence assay; format: cell-based
[5] = target: T1, L-lactate dehydrogenase A chain; remark: listed apart in the source

NS(=O)(=O)c1ccc(Cc2c(-c3cccc(Br)c3)nn(-c3nc(C(=O)O)cs3)c2O)cc1
IC50 [1]: 2370 nM | IC50 [2]: 2370 nM

NS(=O)(=O)c1ccc(Oc2c(-c3cccc(-c4ccccc4)c3)nn(-c3nc(C(=O)O)cs3)c2C2CC2)cc1
IC50 (L-lactate dehydrogenase [3]): 1960 nM

NS(=O)(=O)c1ccc(Cc2c(-c3ccc(F)c(F)c3)nn(-c3nc(C(=O)O)cs3)c2O)cc1
IC50 (L-lactate dehydrogenase [4]): > 57000 nM | EC50 [5]: 3530 nM

NS(=O)(=O)c1ccc(Cc2c(-c3cccc(-c4ccccc4)c3)nn(-c3nc(C(=O)O)cs3)c2CC2CC2)cc1
IC50 (L-lactate dehydrogenase [4]): 517 to 850 nM

From ChEMBL document CHEMBL4028893, “Discovery and Optimization of Potent, Cell-Active Pyrazole-Based Inhibitors of Lactate Dehydrogenase (LDH)” (J Med Chem, 2017)
